Values of other authors in patent US20100267635A1, “USE OF PROTEASE INHIBITORS AND GRF MOLECULES IN COMBINATION THERAPY” (THERATECHONOLGIES INC., priority 2009, published 2010).
This is a selection: effects in other tests are not listed, and their absence says nothing.

Parameters: key to the marks not given beside the values
Details: combination with ritonavir; cited from earlier work

CCC(=O)N(c1ccccc1)C1CCN(CCc2ccccc2)CC1
Risk (drug interaction with ritonavir), left-hand column: D
